The results in this text go back to PubChem BioAssay (EPA / NIEHS).

Protein sequences, listed by entry. Tags and fused reporters are not part of them.
UniProt P04637, whole entry, looked up: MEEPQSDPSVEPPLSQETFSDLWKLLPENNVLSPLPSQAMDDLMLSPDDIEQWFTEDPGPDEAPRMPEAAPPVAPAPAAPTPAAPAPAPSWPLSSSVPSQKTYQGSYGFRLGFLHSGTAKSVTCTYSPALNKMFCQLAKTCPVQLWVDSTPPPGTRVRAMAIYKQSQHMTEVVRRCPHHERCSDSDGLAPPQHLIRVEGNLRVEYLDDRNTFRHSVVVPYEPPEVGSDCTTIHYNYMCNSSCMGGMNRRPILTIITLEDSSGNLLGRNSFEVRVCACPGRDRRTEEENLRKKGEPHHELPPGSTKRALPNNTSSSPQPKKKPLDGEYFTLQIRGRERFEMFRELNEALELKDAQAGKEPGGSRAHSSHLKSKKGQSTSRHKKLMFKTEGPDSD

Read-out in experiment [1]: Transforming Growth Factor (TGFA), TGFA (gene 7039)
The experiment can be described thus: LTEA_HepaRG_TGFA: Life Technologies and Expression Analysis (LTEA) Assay for Transforming Growth Factor (TGFA) using HepaRG (AID 2283532; active = hit-call score of the fitted dose curve at least 0.9, where 1 is the maximum; inactive = score below 0.9). The conditions noted are these: actives raise or lower the signal; mRNA level, 48 h. In a few lines:
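Gene expression of TGFA was quantified by qRT-PCR after human HepaRG cells were treated for 48 h with test chemicals (eight concentrations, highest 100 uM, 0.5% DMSO). Activity in either direction was fitted relative to DMSO.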

Read-out in experiment [2]: Transforming Growth Factor (TGFB1), TGFB1 (gene 7040)
The experiment can be described thus: LTEA_HepaRG_TGFB1: Life Technologies and Expression Analysis (LTEA) Assay for Transforming Growth Factor (TGFB1) Transporter using HepaRG (AID 2283533; active = hit-call score of the fitted dose curve at least 0.9, where 1 is the maximum; inactive = score below 0.9). The conditions noted are these: actives raise or lower the signal; mRNA level, 48 h. In a few lines: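 Differentiated HepaRG cells exposed 48 hr in serum-free induction medium to eight half-log concentrations up to 100 uM (0.5% DMSO), duplicate; TGFB1 mRNA by TaqMan qRT-PCR normalised to ACTB, GAPDH, POLR2A; bidirectional fit against DMSO.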

Read-out in another experiment: TIMP1, TIMP1 (gene 7076)
The experiment can be described thus: LTEA_HepaRG_TIMP1: Life Technologies and Expression Analysis (LTEA) Assay for TIMP1 using HepaRG (AID 2283534; active = hit-call score of the fitted dose curve at least 0.9, where 1 is the maximum; inactive = score below 0.9). The conditions noted are these: actives raise or lower the signal; mRNA level, 48 h. In a few lines:
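Differentiated HepaRG cells exposed 48 h in serum-free induction medium, duplicates, eight half-log concentrations from 100 uM in 0.5% DMSO. TIMP1 mRNA by qRT-PCR normalized to ACTB, GAPDH, POLR2A; bidirectional fitting against DMSO.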

Read-out in experiment [3]: Tumor necrosis factor receptor 1 (TNFRSF1A), TNFRSF1A (gene 7132)
In words: LTEA_HepaRG_TNFRSF1A: Life Technologies and Expression Analysis (LTEA) Assay for Tumor necrosis factor receptor 1 (TNFRSF1A) using HepaRG (AID 2283535; active = hit-call score of the fitted dose curve at least 0.9, where 1 is the maximum; inactive = score below 0.9). The conditions noted are these: actives raise or lower the signal; mRNA level, 48 h. In a few lines: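 Differentiated HepaRG cells in serum-free induction medium, exposed 48 h in duplicate to 8 half-log concentrations up to 100 uM in 0.5% DMSO. TNFRSF1A mRNA by Fluidigm TaqMan qRT-PCR, normalized to ACTB, GAPDH, POLR2A; bidirectional fit.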

Read-out in experiment [4]: Thyroid Hormone Responsive (THRSP), THRSP (gene 7069)
In words: LTEA_HepaRG_THRSP: Life Technologies and Expression Analysis (LTEA) Assay for Thyroid Hormone Responsive (THRSP) using HepaRG (AID 2283536; active = hit-call score of the fitted dose curve at least 0.9, where 1 is the maximum; inactive = score below 0.9). The conditions noted are these: actives raise or lower the signal; mRNA level, 48 h. In a few lines:
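Cell model: human HepaRG, approx. 100,000 cells/well, 0.5% DMSO vehicle. Exposure lasts 48 h; phenobarbital 1 mM serves as induction positive control. Gene expression is measured by qRT-PCR against three endogenous control genes.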

Read-out in experiment [5]: Cellular tumor antigen p53 (Homo sapiens) (UniProt P04637)
The experiment can be described thus: LTEA_HepaRG_TP53: Life Technologies and Expression Analysis (LTEA) Assay for Tumor Protein P53 (TP53) using HepaRG (AID 2283537; active = hit-call score of the fitted dose curve at least 0.9, where 1 is the maximum; inactive = score below 0.9). The conditions noted are these: actives raise or lower the signal; mRNA level, 48 h. In a few lines: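 TP53 transcript measured by qRT-PCR, normalized to three housekeeping genes, after 48 h treatment of human HepaRG cultures with chemicals from 100 uM downward in half-log steps (0.5% DMSO vehicle, serum-free induction medium). Up- or down-regulation fitted against DMSO.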

Read-out in experiment [6]: UDP glucuronosyltransferase (UGT1A1), UGT1A1 (gene 54658)
In words: LTEA_HepaRG_UGT1A1: Life Technologies and Expression Analysis (LTEA) Assay for UDP glucuronosyltransferase (UGT1A1) using HepaRG (AID 2283538; active = hit-call score of the fitted dose curve at least 0.9, where 1 is the maximum; inactive = score below 0.9). The conditions noted are these: actives raise or lower the signal; mRNA level, 48 h. In a few lines:
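mRNA induction or loss of UGT1A1, by TaqMan qRT-PCR, in duplicate HepaRG wells after 48 h exposure to half-log dilutions topping at 100 uM; DMSO (0.5%) served as baseline.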

The nature of experiment [7]: ATG_XTT_Cytotoxicity: Cytotoxicity Assessment in the Attagene TRANS-FACTORIAL HepG2 Assay (AID 2283584).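 For AC50: XTT signal for cell number as viability in transfected HepG2 cells; cells exposed to compound for 24 h before reading; active means loss of viability signal versus DMSO baseline.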 Put shortly:
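HepG2 cells transiently transfected with GAL4-UAS multiple reporter units, dosed 24 h; cytotoxicity read by XTT as loss of signal versus DMSO baseline.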

Experiment [8] can be described thus: Tanguay_ZF_120hpf_MORT_legacy: (Legacy) Oregon State University Tanguay Lab 120 Hour Post-fertilization zebrafish Assay for Mortality (AID 2283633).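 For AC50: fitted as increase in binary mortality versus DMSO negative control.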 In a few lines: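 Dechorionated Tropical 5D wild-type zebrafish embryos, one per well from 6 hpf, static exposure in 0.64% DMSO at 28C until 120 hpf. Mortality scored as binary by brightfield microscopy at 24 and 120 hpf.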

Experiment [9] in a line: Tanguay_ZF_120hpf_YSE_legacy: (Legacy) Oregon State University Tanguay Lab 120 Hour Post-fertilization zebrafish Assay for Yolk Sac Edema (AID 2283634).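 For AC50: actives raise the incidence of yolk sac edema above the DMSO baseline.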 In a few lines:
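Dechorionated Tropical 5D wild-type zebrafish embryos were exposed statically, one per well, from 6 to 120 hpf at 28C in 0.64% DMSO. Yolk sac edema was scored present/absent by brightfield at 120 hpf, and dead embryos were excluded.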

The nature of experiment [10]: Tanguay_ZF_120hpf_AXIS_legacy: (Legacy) Oregon State University Tanguay Lab 120 Hour Post-fertilization zebrafish Assay for Body Axis Malformation (AID 2283635). Put shortly:
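Dechorionated wild-type Tropical 5D zebrafish embryos, one per well, statically exposed from 6 hpf to 120 hpf at 28C in 0.64% DMSO final. Body axis malformation scored present/absent by brightfield microscopy at 120 hpf; dead embryos excluded.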

Experiment [11] in a line: Tanguay_ZF_120hpf_EYE_legacy: (Legacy) Oregon State University Tanguay Lab 120 Hour Post-fertilization zebrafish Assay for Eye Malformation (AID 2283636).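 Note: binary presence or absence of eye malformation scored by brightfield in 120 hpf larvae.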 Put shortly:
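Static waterborne exposure of dechorionated zebrafish embryos (strain Tropical 5D), 6 to 120 hpf, sealed plates at 28C, 0.64% DMSO vehicle. Eye malformation is scored as a binary endpoint, with gain of signal analysed relative to DMSO.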

Experiment [12] in a line: Tanguay_ZF_120hpf_SNOU_legacy: (Legacy) Oregon State University Tanguay Lab 120 Hour Post-fertilization zebrafish Assay for Snout Malformation (AID 2283637). Put shortly:
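Dechorionated zebrafish, individually housed from 6 hpf in covered, sealed wells at 28C with 0.64% DMSO vehicle, were examined at 120 hpf for snout malformation. Responses were binary and analysed positive-direction relative to DMSO.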

The nature of experiment [13]: Tanguay_ZF_120hpf_OTIC_legacy: (Legacy) Oregon State University Tanguay Lab 120 Hour Post-fertilization zebrafish Assay for Otic Vesicle Malformation (AID 2283639). Put shortly:
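Wild-type zebrafish larvae, whole-embryo exposure from early stage to 120 hpf at 28C. Binary brightfield scoring of otic vesicle morphology, fitted in the positive direction against the DMSO baseline.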

Experiment [14] can be described thus: Tanguay_ZF_120hpf_PE_legacy: (Legacy) Oregon State University Tanguay Lab 120 Hour Post-fertilization zebrafish Assay for Pericardial Edema (AID 2283640).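 For AC50: potency for increased incidence of pericardial edema versus DMSO baseline.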 In a few lines: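 Tropical 5D wild-type zebrafish embryos were statically exposed until 120 hpf at 28C, with 0.64% DMSO final. Pericardial edema was scored by brightfield as present or absent; endpoints were not scored in dead embryos.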

Read-out in experiment [15]: UDP glucuronosyltransferase (UGT1A6), UGT1A6 (gene 54578)
In words: LTEA_HepaRG_UGT1A6: Life Technologies and Expression Analysis (LTEA) Assay for UDP glucuronosyltransferase (UGT1A6) using HepaRG (AID 2283539; active = hit-call score of the fitted dose curve at least 0.9, where 1 is the maximum; inactive = score below 0.9). The conditions noted are these: actives raise or lower the signal; mRNA level, 48 h. Put shortly:
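Differentiated HepaRG cells, ~100,000/well, were exposed for 48 h in serum-free induction medium with 0.5% DMSO to 8-point half-log series topping at 100 uM, in duplicate. mRNA measured by Fluidigm TaqMan qRT-PCR, normalized to ACTB, GAPDH and POLR2A.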

Read-out in experiment [16]: X-box binding protein 1 (XBP1), XBP1 (gene 7494)
In words: LTEA_HepaRG_XBP1: Life Technologies and Expression Analysis (LTEA) Assay for X-box binding protein 1 (XBP1) using HepaRG (AID 2283540; active = hit-call score of the fitted dose curve at least 0.9, where 1 is the maximum; inactive = score below 0.9). The conditions noted are these: actives raise or lower the signal; mRNA level, 48 h. Put shortly: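 Differentiated human HepaRG cells in serum-free induction medium exposed 48 h in duplicate to eight half-log concentrations up to 100 uM in 0.5% DMSO. XBP1 mRNA measured by Fluidigm TaqMan qRT-PCR, normalized to ACTB, GAPDH, POLR2A; bidirectional fitting against DMSO.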

The nature of experiment [17]: LTEA_HepaRG_LDH_cytotoxicity: Cytotoxicity Assessment in the Life Technologies and Expression Analysis (LTEA) Assay (AID 2283563).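 For AC50: LDH activity released into spent culture medium as a marker of cell death.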 Put shortly: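 Differentiated HepaRG cells in serum-free induction medium, exposed 48 h in duplicate to 8 half-log concentrations up to 100 uM in 0.5% DMSO. Cytotoxicity from LDH measured in spent medium, fit relative to DMSO.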
A short description of experiment [18]: Tanguay_ZF_120hpf_JAW_legacy: (Legacy) Oregon State University Tanguay Lab 120 Hour Post-fertilization zebrafish Assay for Jaw Malformation (AID 2283638). In a few lines: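 Dechorionated Tropical 5D wild-type zebrafish embryos, one per well, exposed statically from 6 hpf to 120 hpf at 28C in 0.64% DMSO. Jaw malformation was scored by brightfield microscopy as present or absent. It was not scored in dead embryos.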

Experiment [19] can be described thus: Tanguay_ZF_120hpf_BRAI_legacy: (Legacy) Oregon State University Tanguay Lab 120 Hour Post-fertilization zebrafish Assay for Brain Malformation (AID 2283641). Put shortly: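 Tropical 5D wild-type zebrafish embryos exposed statically until 120 hpf at 28C, 0.64% DMSO final, sealed and dark. Brain malformation scored present/absent by brightfield at 120 hpf; dead embryos excluded. Trimethyltin chloride 5uM positive control.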

The list shows a part of the results, in another mix than the full data. Records with an inconclusive call do not appear. Calls of active or inactive are those of the source. Rule for the calls, unless noted: active = hit-call score of the fitted dose curve at least 0.9, where 1 is the maximum; inconclusive = response in the unintended direction; inactive = score below 0.9.

Consider `Cc1cc([N+](=O)[O-])cc([N+](=O)[O-])c1O`, for which the AC50 was active: 50 µM in experiment [1]; active: 50 µM with TIMP1, TIMP1 (gene 7076); active: 6.3 µM in experiment [4]; active: 89.8 µM in [5]; active: 4.33 µM in [6]; active: 3.05 µM in experiment [8]. Also, the AC50 in experiment [9] is active: 1.19 µM; in experiment [14] it was active: 5.12 µM. In addition, the call in experiment [2], in [3], in experiment [7], in experiment [10], in [11] and in experiment [12] was inactive. For the same compound, in [13], the outcome was inactive.
Take `ClP(Cl)c1ccccc1`: in experiment [7], the outcome was inactive.
In the case of `O=C1C2CC=CCC2C(=O)N1SC(Cl)(Cl)C(Cl)Cl` (stereo unspecified), the outcome is “inactive” in experiment [1]; “inactive” in experiment [2]; “inactive” with TIMP1, TIMP1 (gene 7076); “inactive” in experiment [5]; “inactive” in experiment [6]; “inactive” in experiment [15]. Besides, the outcome in experiment [16], in experiment [9], in [10], in experiment [11], in experiment [12] and in [18] was inactive. Further, the outcome in experiment [13] and in experiment [14] was inactive. In addition, the AC50 in experiment [3] was active: 0.676 µM; in experiment [4], active: 50 µM; in experiment [17], active: 66.8 µM; in experiment [8], active: 32.8 µM.
With `O=C(Cl)Oc1ccccc1`, the compound was classed as inactive in [7].
Regarding `O=C(Cl)OCCOC(=O)Cl`, the compound was classed as inactive in experiment [7].
As to `CCCCOP(OCCCC)OCCCC`, the result in [7] was inactive.
On to `CC(C)CCCCCCCOP(OCCCCCCCC(C)C)Oc1ccccc1`, for which the result in experiment [7] was inactive.
Same read-out and setting: next, `O=[P+](Oc1ccccc1)Oc1ccccc1`: “inactive”.
With `N#CSc1ccc([N+](=O)[O-])cc1[N+](=O)[O-]`, the AC50 in experiment [7] was active: 52.3 µM.
As to `O=P(Cl)(Oc1ccccc1)Oc1ccccc1`, the outcome in experiment [7] was inactive.
For the compound `CC(C)OP(=S)(OC(C)C)SCCNS(=O)(=O)c1ccccc1`, the outcome in experiment [1] is “inactive”; in the experiment with TIMP1, TIMP1 (gene 7076), “inactive”; in experiment [16], “inactive”; in experiment [8] it was “inactive”; in experiment [9], “inactive”; in experiment [11], “inactive”. The result in experiment [12], in experiment [13], in [14] and in experiment [19] was inactive. Besides, the AC50 in experiment [2] is active: 90.9 µM; in [4], active: 25.3 µM; in experiment [6], active: 83.7 µM; in experiment [15] it was active: 83 µM; in [17], active: 75.1 µM.
On to `O=[N+]([O-])c1ccc([N+](=O)[O-])cc1`, for which, in experiment [7], the compound was classed as inactive.
In the case of `CN(C(=O)Cc1cccc2occc12)[C@H]1CC[C@@]2(CCCO2)C[C@@H]1N1CCCC1`, the outcome was “inactive” in experiment [1]; “inactive” in [2]; “inactive” in the experiment with TIMP1, TIMP1 (gene 7076); “inactive” in experiment [3]; “inactive” in experiment [5]; “inactive” in experiment [15]. For the same compound, the result in [16], in [17], in experiment [8], in [9], in experiment [10] and in [11] was inactive. The outcome in experiment [12], in experiment [18], in experiment [13], in experiment [14] and in experiment [19] was inactive. Besides, the values for the AC50 in experiment [4] and in [6] were active: 50 µM and active: 22.5 µM, respectively.
